Assay results from patent publication US6635432B1, “Peptide potentiation of acid-sensory ion channel in pain” (University of Iowa Research Foundation, priority 2000, dated 2003).

Tests used:
Assay type in all cases: cell-based
[1] = target: T1, ASICα (Homo sapiens, UniProt P78348); assay: Whole-cell patch-clamp of HEK-293T cells transfected with ASICα; design: expressed in transfected cells
T1 sequence (P78348 1-528): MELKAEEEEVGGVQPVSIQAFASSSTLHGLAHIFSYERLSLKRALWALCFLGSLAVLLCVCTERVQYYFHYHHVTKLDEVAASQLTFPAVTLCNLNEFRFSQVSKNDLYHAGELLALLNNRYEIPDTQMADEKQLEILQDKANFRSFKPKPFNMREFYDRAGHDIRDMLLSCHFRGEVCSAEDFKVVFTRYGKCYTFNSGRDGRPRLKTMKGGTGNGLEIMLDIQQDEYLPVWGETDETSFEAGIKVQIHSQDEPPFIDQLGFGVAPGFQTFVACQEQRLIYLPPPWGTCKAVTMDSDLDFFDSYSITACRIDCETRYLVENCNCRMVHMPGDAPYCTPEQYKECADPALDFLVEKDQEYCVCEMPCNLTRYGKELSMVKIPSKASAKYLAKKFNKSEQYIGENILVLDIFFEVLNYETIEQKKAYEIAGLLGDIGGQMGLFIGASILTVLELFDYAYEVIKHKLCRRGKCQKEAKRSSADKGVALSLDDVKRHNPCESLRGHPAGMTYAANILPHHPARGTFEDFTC
Source text: Human ASICα was cloned from brain polyA RNA. Rat ASICβ and mouse DRASIC were cloned from DRG RNA. […] Constructs were cloned into pMT3 for expression.
To identify transfected cells, pGreenlantern vector encoding green fluorescent protein (Gibco, Gaithersburg, Md.) was co-transfected with ASICα at a ratio of 1:6; transfected cells were identified using epifluorescence microscopy. Cells were studied 1-2 days after transfection.
The pipette solution contained, in mM: 120 KCl, 10 NaCl, 2 MgCl2, 5 EGTA, 10 HEPES. Perfusion of cells with different solutions was done by placing the appropriate outlet in front of the cell. Data were recorded with an AXOPATCH 200 (Axon Instruments, Foster City, Calif.) and stored on a digital tape recorder. Digitization was executed by acquiring data at 400 Hz using pClamp6 (Axon Instruments, Foster City, Calif.).

[2] = target: T2, DRASIC (Mus musculus, UniProt Q6X1Y6); assay: Two-electrode voltage-clamp of Xenopus oocytes expressing DRASIC
T2 construct: expressed in transfected cells; host or cells: Xenopus laevis oocytes (nuclear injection of pMT3 plasmid)
T2 sequence (Q6X1Y6 1-530): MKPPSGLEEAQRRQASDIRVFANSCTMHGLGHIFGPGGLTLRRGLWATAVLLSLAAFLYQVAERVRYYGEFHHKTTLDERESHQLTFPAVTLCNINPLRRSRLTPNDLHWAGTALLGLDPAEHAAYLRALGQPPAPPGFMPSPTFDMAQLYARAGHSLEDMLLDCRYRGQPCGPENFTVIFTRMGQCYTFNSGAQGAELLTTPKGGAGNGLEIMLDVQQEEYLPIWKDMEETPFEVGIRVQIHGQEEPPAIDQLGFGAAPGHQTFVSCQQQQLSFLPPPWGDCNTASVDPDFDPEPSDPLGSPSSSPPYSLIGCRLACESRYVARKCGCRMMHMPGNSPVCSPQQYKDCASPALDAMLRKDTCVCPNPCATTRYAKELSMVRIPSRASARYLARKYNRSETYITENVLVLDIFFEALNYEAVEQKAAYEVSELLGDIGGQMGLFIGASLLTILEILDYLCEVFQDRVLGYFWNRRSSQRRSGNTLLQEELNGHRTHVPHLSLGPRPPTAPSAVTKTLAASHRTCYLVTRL
Source text: (§1) Human ASICα was cloned from brain polyA RNA. Rat ASICβ and mouse DRASIC were cloned from DRG RNA. Human BNC1 was cloned as described in Price et al. (1996)(Price, M. P., Snyder, P. M., and Welsh, M. J. (1996). Cloning and expression of a novel human brain Na^+ channel. J Biol Chem 271, 7879-7882). Constructs were cloned into pMT3 for expression. The validity of the constructs was confirmed by DNA sequencing.
Expression of the cDNA constructs in Xenopus oocytes was accomplished by injection of plasmid DNA into the nucleus of defolliculated albino Xenopus laevis oocytes (Nasco, Fort Atkinson, Wis.) as described previously (Adams, C. M., Snyder, P. M., Price, M. P., and Welsh, M. J. (1998). Protons activate brain Na^+ channel 1 by inducing a conformational change that exposes a residue associated with neurodegeneration. J Biol Chem 273, 30204-30207). Plasmids were injected at concentrations of 100 ng/μl for most experiments. Oocytes were incubated in modified Barth's solution at 18° C. for 12-26 hr after injection. Cells injected with DRASIC were allowed to incubate for 24-48 hr before analysis.
Whole-cell currents in oocytes were measured using a two-electrode voltage-clamp as previously described (Adams, et al. (1998)). […]

[3] = target: T1, ASICα; assay: Excised, outside-out patches from HEK-293T cells transfected with ASICα; design: expressed in transfected cells; host or cells: Xenopus laevis oocytes (nuclear injection of pMT3 plasmid); conditions: FMRFamide 100 μM; pH 5
Source text: as §1
HEK-293T cells were a gift of Dr. Mark Stinski (Univ. of Iowa). ASICα cDNA was transfected into HEK-293T cells using Transfast lipid reagents (Promega, Madison, Wis.). To identify transfected cells, pGreenlantern vector encoding green fluorescent protein (Gibco, Gaithersburg, Md.) was co-transfected with ASICα at a ratio of 1:6; transfected cells were identified using epifluorescence microscopy. Cells were studied 1-2 days after transfection.
Excised, outside-out patches were obtained from transfected HEK-293T cells. The bath solution contained, in mM: 140 NaCl, 2 MgCl2, 1.8 CaCl2, 10 HEPES at pH 7.4, or Tris(hydroxymethyl)aminomethane (Tris) or MES at pH 5. The pipette solution contained: 140 NMDG-Cl, 2 MgCl2, 2 EGTA, 10 HEPES, pH 7.4.
To test whether FMRFamide interacts directly with the channel, ASICα was expressed in HEK293 cells and current from excised, outside-out patches was recorded.

## CSCC[C@H](NC(=O)[C@@H](N)Cc1ccccc1)C(=O)N[C@@H](CCCNC(=N)N)C(=O)N[C@@H](Cc1ccccc1)C(N)=O [FMRFamide, Phe-Met-Arg-Phe amide]
[1]; pH 5
  dependence of sustained current on sequence of FMRFamide and acid addition: application of FMRFamide after the pH reduction failed to induce large sustained current
[1]; pH 5, FMRFamide 50 or 100 μM
  effect on H+-gated ASICα whole-cell current: inactivation slowed and a sustained current was apparent
[2]; pH 4, peptide 100 μM
  effect on H+-gated DRASIC current (transient and sustained): slowed inactivation of the transient current and increased the sustained current
[2]; pH 5, FMRFamide 50 or 100 μM
  effect on H+-gated DRASIC current (inactivation, sustained current): inactivation was slowed and a sustained current was more apparent
[3]
  effect on inactivation of H+-dependent ASICα current in outside-out patches: inactivation was slowed substantially
